{"sequences": {"note": "The chains behind the UniProt entries cited, without tags or fusion partners. Where a name states a change or a piece, a line headed by the entry shows the natural chain unless it says otherwise.", "UniProt Q13554, whole entry": "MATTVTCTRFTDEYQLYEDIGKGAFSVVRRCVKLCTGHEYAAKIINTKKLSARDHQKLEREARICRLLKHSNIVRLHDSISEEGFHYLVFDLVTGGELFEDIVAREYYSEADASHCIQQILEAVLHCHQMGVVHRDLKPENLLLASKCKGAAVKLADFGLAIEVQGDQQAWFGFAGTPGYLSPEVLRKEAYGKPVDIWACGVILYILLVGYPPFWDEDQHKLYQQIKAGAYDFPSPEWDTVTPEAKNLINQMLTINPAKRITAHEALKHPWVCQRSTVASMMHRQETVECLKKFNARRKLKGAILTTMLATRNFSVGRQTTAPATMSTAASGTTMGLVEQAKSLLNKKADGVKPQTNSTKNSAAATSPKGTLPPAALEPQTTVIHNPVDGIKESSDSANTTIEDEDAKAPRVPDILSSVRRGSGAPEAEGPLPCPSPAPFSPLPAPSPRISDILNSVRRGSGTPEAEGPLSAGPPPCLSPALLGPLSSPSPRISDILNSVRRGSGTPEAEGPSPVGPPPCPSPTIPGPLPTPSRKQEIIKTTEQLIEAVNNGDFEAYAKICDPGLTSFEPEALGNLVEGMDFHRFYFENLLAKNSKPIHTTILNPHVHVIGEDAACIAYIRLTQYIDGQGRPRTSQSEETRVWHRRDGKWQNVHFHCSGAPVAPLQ", "UniProt Q9NRM7": "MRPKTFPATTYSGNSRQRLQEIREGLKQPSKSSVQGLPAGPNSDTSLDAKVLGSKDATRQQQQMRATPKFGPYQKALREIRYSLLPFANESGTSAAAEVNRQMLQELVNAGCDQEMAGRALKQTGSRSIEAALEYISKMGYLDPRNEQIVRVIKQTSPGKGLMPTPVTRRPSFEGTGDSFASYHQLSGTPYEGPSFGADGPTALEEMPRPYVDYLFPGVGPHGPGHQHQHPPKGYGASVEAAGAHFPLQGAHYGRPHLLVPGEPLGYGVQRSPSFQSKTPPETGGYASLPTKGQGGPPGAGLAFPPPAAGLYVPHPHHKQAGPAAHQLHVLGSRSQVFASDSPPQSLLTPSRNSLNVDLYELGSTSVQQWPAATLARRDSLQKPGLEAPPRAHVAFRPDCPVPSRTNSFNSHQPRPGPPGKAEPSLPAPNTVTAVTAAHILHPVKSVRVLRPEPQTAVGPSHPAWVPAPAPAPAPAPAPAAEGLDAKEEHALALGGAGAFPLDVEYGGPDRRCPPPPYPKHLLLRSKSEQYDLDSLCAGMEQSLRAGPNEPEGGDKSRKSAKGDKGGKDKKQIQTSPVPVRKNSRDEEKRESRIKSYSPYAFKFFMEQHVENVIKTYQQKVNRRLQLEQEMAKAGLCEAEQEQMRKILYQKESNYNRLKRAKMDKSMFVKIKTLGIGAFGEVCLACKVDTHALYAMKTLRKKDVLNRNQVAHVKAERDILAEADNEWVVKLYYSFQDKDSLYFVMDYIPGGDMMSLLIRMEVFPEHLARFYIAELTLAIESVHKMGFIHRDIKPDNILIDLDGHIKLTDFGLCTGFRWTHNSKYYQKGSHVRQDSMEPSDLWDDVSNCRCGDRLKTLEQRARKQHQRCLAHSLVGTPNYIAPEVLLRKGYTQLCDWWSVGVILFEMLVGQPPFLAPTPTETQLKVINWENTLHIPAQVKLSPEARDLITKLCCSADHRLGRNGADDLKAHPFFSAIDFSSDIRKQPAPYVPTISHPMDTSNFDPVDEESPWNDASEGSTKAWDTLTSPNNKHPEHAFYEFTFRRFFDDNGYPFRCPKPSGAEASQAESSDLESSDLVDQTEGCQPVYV", "UniProt Q14289, whole entry": "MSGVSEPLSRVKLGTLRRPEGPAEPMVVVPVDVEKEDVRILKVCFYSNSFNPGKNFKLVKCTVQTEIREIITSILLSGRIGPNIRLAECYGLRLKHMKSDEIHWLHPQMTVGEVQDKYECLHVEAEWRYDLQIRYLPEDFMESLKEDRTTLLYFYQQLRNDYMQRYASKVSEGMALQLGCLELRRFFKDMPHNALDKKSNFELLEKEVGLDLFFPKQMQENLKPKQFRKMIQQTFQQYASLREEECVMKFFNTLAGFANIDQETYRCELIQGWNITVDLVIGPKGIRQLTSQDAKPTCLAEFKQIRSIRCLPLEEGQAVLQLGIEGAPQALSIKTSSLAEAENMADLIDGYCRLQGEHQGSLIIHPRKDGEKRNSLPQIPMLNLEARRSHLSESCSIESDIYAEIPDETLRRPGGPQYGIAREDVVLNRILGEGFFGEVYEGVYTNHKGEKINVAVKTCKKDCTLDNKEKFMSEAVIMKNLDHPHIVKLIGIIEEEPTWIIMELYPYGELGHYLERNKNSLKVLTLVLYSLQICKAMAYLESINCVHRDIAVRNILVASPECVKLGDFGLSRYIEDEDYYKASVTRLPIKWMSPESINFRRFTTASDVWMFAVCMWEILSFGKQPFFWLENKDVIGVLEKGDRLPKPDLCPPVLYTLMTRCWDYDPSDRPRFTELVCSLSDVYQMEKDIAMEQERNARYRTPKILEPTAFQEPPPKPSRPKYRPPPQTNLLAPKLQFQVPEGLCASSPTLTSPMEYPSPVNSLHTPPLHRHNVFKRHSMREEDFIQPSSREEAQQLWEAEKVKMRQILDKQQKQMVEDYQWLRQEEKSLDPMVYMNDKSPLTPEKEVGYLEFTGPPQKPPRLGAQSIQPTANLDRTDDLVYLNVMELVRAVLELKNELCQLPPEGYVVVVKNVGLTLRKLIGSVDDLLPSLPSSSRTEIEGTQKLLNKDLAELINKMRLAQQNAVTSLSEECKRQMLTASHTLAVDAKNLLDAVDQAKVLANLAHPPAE", "UniProt Q9UBE8": "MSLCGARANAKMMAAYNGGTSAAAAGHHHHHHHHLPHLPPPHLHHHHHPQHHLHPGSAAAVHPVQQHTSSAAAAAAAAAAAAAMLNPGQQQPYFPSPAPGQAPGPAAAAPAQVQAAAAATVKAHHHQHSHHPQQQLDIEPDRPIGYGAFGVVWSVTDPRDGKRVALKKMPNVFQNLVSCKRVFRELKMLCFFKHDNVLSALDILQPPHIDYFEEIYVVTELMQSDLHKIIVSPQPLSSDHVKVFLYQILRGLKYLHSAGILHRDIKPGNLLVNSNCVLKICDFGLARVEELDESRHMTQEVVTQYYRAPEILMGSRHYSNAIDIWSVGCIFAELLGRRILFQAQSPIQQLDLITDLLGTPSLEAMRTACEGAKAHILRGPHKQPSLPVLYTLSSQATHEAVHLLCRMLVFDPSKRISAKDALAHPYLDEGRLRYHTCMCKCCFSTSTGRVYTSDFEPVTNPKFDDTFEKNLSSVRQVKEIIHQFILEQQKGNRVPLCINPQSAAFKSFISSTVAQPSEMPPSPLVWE", "UniProt P42680": "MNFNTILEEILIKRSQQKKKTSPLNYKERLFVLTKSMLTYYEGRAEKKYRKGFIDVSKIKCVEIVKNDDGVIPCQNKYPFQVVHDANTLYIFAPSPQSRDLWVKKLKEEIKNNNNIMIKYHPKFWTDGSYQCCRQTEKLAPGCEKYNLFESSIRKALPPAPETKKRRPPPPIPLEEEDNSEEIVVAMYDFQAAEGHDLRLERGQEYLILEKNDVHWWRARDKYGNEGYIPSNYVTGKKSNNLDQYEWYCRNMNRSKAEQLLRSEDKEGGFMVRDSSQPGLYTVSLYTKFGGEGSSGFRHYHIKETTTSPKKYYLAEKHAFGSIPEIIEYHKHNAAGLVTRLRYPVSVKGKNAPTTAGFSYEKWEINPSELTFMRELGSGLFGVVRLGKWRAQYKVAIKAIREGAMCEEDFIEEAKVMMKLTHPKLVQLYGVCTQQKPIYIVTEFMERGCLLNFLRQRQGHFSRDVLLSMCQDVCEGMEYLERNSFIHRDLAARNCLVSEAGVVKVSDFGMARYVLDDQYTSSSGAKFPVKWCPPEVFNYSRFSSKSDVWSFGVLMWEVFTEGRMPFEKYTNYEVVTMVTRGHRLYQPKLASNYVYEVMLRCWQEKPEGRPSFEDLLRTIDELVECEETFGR", "UniProt Q00535, whole entry": "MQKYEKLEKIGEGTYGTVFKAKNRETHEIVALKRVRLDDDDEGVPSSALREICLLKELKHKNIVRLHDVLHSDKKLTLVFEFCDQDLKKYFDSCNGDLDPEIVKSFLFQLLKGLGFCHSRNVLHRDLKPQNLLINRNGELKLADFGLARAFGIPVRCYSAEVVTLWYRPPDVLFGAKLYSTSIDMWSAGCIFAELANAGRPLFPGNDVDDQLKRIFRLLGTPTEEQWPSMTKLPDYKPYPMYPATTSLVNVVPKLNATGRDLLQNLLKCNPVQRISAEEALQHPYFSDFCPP", "UniProt Q9H0K1": "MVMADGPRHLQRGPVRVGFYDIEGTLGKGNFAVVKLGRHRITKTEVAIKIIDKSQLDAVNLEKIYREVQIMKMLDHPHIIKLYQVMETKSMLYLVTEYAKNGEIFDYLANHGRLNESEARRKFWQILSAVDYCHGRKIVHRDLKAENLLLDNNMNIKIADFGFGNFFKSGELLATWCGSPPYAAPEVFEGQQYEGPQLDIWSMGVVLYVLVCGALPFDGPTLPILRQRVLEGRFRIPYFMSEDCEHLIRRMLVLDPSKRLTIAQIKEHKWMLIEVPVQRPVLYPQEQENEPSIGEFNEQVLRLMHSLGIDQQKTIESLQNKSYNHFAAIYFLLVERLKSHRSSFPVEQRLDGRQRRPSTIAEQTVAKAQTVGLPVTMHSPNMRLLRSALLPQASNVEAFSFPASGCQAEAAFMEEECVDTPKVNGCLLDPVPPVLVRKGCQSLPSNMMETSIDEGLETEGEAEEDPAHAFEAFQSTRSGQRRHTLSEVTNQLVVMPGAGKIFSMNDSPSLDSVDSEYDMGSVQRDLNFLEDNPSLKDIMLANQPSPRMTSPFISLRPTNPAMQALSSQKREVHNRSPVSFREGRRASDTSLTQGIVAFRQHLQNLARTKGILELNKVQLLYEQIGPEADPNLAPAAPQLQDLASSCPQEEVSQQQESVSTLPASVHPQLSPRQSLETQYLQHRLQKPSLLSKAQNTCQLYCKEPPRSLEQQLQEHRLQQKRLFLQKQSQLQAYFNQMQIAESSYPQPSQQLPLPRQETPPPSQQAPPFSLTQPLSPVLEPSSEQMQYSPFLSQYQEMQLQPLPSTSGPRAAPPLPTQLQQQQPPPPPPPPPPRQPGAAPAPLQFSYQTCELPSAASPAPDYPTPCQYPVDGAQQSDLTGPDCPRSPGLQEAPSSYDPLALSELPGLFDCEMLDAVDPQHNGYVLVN", "UniProt Q9Y2K2": "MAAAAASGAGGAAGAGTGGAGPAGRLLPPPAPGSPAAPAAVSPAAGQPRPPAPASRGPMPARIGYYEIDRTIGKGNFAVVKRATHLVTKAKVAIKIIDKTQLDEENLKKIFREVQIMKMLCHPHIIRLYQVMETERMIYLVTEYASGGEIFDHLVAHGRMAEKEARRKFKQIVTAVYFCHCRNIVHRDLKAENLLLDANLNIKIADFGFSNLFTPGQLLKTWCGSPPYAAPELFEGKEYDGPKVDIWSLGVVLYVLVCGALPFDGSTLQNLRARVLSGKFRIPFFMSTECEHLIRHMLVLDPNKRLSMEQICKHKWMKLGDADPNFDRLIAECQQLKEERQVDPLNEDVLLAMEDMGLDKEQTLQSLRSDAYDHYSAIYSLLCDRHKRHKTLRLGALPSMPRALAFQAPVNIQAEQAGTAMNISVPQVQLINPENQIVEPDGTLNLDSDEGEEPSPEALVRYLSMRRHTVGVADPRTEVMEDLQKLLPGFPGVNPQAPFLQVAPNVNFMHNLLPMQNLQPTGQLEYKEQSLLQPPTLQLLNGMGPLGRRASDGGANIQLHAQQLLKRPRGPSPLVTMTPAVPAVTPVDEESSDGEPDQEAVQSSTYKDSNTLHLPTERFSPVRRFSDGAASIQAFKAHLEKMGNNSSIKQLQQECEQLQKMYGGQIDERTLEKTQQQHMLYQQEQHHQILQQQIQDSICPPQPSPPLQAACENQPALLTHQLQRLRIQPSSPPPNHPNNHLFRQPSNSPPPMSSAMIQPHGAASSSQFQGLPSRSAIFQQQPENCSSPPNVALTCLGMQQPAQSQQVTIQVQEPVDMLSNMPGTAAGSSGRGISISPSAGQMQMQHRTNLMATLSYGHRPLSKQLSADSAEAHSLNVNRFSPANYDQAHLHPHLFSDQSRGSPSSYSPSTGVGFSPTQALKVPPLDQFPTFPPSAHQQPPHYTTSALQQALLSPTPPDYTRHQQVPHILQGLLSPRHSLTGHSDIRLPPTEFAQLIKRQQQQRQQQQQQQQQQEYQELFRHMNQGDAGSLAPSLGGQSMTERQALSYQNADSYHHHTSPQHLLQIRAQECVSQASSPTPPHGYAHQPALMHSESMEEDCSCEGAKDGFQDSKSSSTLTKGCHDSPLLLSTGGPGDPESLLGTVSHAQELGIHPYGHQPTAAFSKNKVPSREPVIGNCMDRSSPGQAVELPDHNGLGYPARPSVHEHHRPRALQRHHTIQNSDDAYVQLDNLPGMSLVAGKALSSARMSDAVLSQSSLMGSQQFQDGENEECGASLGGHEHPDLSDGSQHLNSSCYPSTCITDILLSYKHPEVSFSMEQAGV"}, "source": "paper PMC7611940", "about": "“A Conformation Selective Mode of Inhibiting SRC Improves Drug Efficacy and Tolerability” (Cancer Research, 2021)", "assay_in_all_cases": "biochemical", "settings_in_all_cases": "read-out: % remaining activity", "key": {"[1]": {"target": "AKT2 (Homo sapiens, UniProt P31751)"}, "[2]": {"target": "T1, MEK2 (Homo sapiens, UniProt P36507)", "T1 construct": "gene MAP2K2"}, "[3]": {"target": "NEK1 (Homo sapiens, UniProt Q96PY6)"}, "[4]": {"target": "ERBB4 (Homo sapiens, UniProt Q15303)"}, "[5]": {"target": "FGR (Homo sapiens, UniProt P09769)"}, "[6]": {"target": "STK16 (Homo sapiens, UniProt O75716)"}, "[7]": {"target": "T2, MEK3 (Homo sapiens, UniProt P46734)", "T2 construct": "gene MAP2K3"}, "[8]": {"target": "WNK1 (Homo sapiens, UniProt Q9H4A3)"}, "[9]": {"target": "STK39 (Homo sapiens, UniProt Q9UEW8)"}, "[10]": {"target": "CAMK2b (Homo sapiens, UniProt Q13554)"}, "[11]": {"target": "T3, DCAMKL1 (Homo sapiens, UniProt O15075)", "T3 construct": "gene DCLK1"}, "[12]": {"target": "LATS2 (Homo sapiens, UniProt Q9NRM7)"}, "[13]": {"target": "T4, PYK2 (Homo sapiens, UniProt Q14289)", "T4 construct": "gene PTK2B"}, "[14]": {"target": "ARAF (Homo sapiens, UniProt P10398)"}, "[15]": {"target": "DYRK2 (Homo sapiens, UniProt Q92630)"}, "[16]": {"target": "T5, CAMK1b (Homo sapiens, UniProt Q6P2M8)", "T5 construct": "gene PNCK"}, "[17]": {"target": "GSK3a (Homo sapiens, UniProt P49840)"}, "[18]": {"target": "NLK (Homo sapiens, UniProt Q9UBE8)"}, "[19]": {"target": "FLT4 (Homo sapiens, UniProt P35916)"}, "[20]": {"target": "FER (Homo sapiens, UniProt P16591)"}, "[21]": {"target": "TEC (Homo sapiens, UniProt P42680)"}, "[22]": {"target": "T6, RIPK5 (Homo sapiens, UniProt Q6XUX3)", "T6 construct": "gene DSTYK"}, "[23]": {"target": "ROS1 (Homo sapiens, UniProt P08922)"}, "[24]": {"target": "JAK2 (Homo sapiens, UniProt O60674)"}, "[25]": {"target": "CAMKK1 (Homo sapiens, UniProt Q8N5S9)"}, "[26]": {"target": "RPS6KB2 (Homo sapiens, UniProt Q9UBS0)"}, "[27]": {"target": "PRKD2 (Homo sapiens, UniProt Q9BZL6)"}, "[28]": {"target": "AURKA (Homo sapiens, UniProt O14965)"}, "[29]": {"target": "LIMK1 (Homo sapiens, UniProt P53667)"}, "[30]": {"target": "T7, TRKC (Homo sapiens, UniProt Q16288)", "T7 construct": "gene NTRK3"}, "[31]": {"target": "T8, LCK2 (Homo sapiens, UniProt Q9UPZ9)", "T8 construct": "gene CILK1"}, "[32]": {"target": "CDK5/p25 (Homo sapiens, UniProt Q00535)"}, "[33]": {"target": "SIK2 (Homo sapiens, UniProt Q9H0K1)"}, "[34]": {"target": "SIK3 (Homo sapiens, UniProt Q9Y2K2)"}, "[35]": {"target": "CAMK1d (Homo sapiens, UniProt Q8IU85)"}, "[36]": {"target": "T9, CK2a2 (Homo sapiens, UniProt P19784)", "T9 construct": "gene CSNK2A2"}}, "data": [{"smiles": "COc1cc(-c2nn(CCN3CCC(N(C)C)CC3)c3ncnc(N)c23)ccc1NC(=O)OC(C)(C)C", "note": "[eCF506]", "values": [{"measurement": "remaining activity at 1 µM", "setting": "[1]", "result": 101, "unit": "%"}, {"measurement": "remaining activity at 1 µM", "setting": "[2]", "result": 78.8, "unit": "%"}, {"measurement": "remaining activity at 1 µM", "setting": "[3]", "result": 106, "unit": "%"}, {"measurement": "remaining activity at 1 µM", "setting": "[4]", "result": 4.5, "unit": "%"}, {"measurement": "remaining activity at 1 µM", "setting": "[5]", "result": 1.3, "unit": "%"}, {"measurement": "remaining activity at 1 µM", "setting": "[6]", "result": 95.7, "unit": "%"}, {"measurement": "remaining activity at 1 µM", "setting": "[7]", "result": 101, "unit": "%"}, {"measurement": "remaining activity at 1 µM", "setting": "[8]", "result": 99.2, "unit": "%"}, {"measurement": "remaining activity at 1 µM", "setting": "[9]", "result": 99.2, "unit": "%"}, {"measurement": "remaining activity at 1 µM", "setting": "[10]", "result": 104, "unit": "%"}, {"measurement": "remaining activity at 1 µM", "setting": "[11]", "result": 103, "unit": "%"}, {"measurement": "remaining activity at 1 µM", "setting": "[12]", "result": 89, "unit": "%"}, {"measurement": "remaining activity at 1 µM", "setting": "[13]", "result": 100, "unit": "%"}, {"measurement": "remaining activity at 1 µM", "setting": "[14]", "result": 1.7, "unit": "%"}, {"measurement": "remaining activity at 1 µM", "setting": "[15]", "result": 98.2, "unit": "%"}, {"measurement": "remaining activity at 1 µM", "setting": "[16]", "result": 90.7, "unit": "%"}, {"measurement": "remaining activity at 1 µM", "setting": "[17]", "result": 89.2, "unit": "%"}, {"measurement": "remaining activity at 1 µM", "setting": "[18]", "result": 93.1, "unit": "%"}, {"measurement": "remaining activity at 1 µM", "setting": "[19]", "result": 128, "unit": "%"}, {"measurement": "remaining activity at 1 µM", "setting": "[20]", "result": 108, "unit": "%"}, {"measurement": "remaining activity at 1 µM", "setting": "[21]", "result": 43.9, "unit": "%"}, {"measurement": "remaining activity at 1 µM", "setting": "[22]", "result": 110, "unit": "%"}, {"measurement": "remaining activity at 1 µM", "setting": "[23]", "result": 102, "unit": "%"}, {"measurement": "remaining activity at 1 µM", "setting": "[24]", "result": 97.5, "unit": "%"}, {"measurement": "remaining activity at 1 µM", "setting": "[25]", "result": 104, "unit": "%"}, {"measurement": "remaining activity at 1 µM", "setting": "[26]", "result": 108, "unit": "%"}, {"measurement": "remaining activity at 1 µM", "setting": "[27]", "result": 113, "unit": "%"}, {"measurement": "remaining activity at 1 µM", "setting": "[28]", "result": 102, "unit": "%"}, {"measurement": "remaining activity at 1 µM", "setting": "[29]", "result": 79.8, "unit": "%"}, {"measurement": "remaining activity at 1 µM", "setting": "[30]", "result": 99.3, "unit": "%"}, {"measurement": "remaining activity at 1 µM", "setting": "[31]", "result": 91.2, "unit": "%"}, {"measurement": "remaining activity at 1 µM", "setting": "[32]", "result": 98.9, "unit": "%"}, {"measurement": "remaining activity at 1 µM", "setting": "[33]", "result": 93.6, "unit": "%"}, {"measurement": "remaining activity at 1 µM", "setting": "[34]", "result": 104, "unit": "%"}, {"measurement": "remaining activity at 1 µM", "setting": "[35]", "result": 96.7, "unit": "%"}, {"measurement": "remaining activity at 1 µM", "setting": "[36]", "result": 176, "unit": "%"}]}]}
